Laboratory results from ChEMBL document CHEMBL1135881, “Ribose-modified nucleosides as ligands for adenosine receptors: synthesis, conformational analysis, and biological evaluation of 1'-C-methyl adenosine analogues” (J Med Chem, 2002).

Sequences of proteins named here, by UniProt entry; tags and fusion partners are left off.
UniProt P28647, whole entry: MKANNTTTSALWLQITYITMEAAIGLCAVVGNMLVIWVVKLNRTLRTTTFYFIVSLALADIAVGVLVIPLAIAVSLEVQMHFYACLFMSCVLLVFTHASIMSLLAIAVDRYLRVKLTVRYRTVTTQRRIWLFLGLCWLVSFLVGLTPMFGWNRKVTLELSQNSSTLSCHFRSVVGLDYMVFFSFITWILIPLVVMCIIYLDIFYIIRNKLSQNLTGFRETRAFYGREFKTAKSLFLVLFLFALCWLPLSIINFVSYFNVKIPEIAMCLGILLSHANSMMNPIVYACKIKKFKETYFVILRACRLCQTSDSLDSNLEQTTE

Molecular target: Adenosine receptor A3 (Rattus norvegicus, UniProt P28647)
Assay: Affinity to Adenosine A3 receptor of rat testis membrane using [3H](R)-PIA with 150 nM DPCPX

Ki: 260 nM
Compound: OC[C@H]1O[C@@H](n2cnc3c(NC4CCCC4)ncnc32)[C@H](O)[C@@H]1O [N6-CYCLOPENTYLADENOSINE]
